Measured values published in publication PMC8196787, “Design and Pharmacodynamics of Recombinant Fungus Defensin NZL with Improved Activity against Staphylococcus hyicus In Vitro and In Vivo” (International Journal of Molecular Sciences, 2021).
Read-outs that look alike come from different tables or passages of the source.

Columns and labels:
S. aureus ATCC 43300 = type: cell-based; details: microbroth dilution, MHB, 37 °C, 16–20 h, triplicate
Procedure: The microbroth dilution method was used to evaluate the MIC values of new derivative peptides. […] The MIC value was defined as the lowest concentration where no visible bacteria growth occurred after overnight incubation. CRO was used as the positive control. All assays were conducted in triplicate.

S. hyicus NCTC 10350 [1] = assay: Mouse peritonitis model, bacterial translocation; type: in vivo; details: 10 mg/kg; 24 h post-treatment; mean, n = 5
Procedure: (§1) Likewise, mice (15 mice/group) were injected with the exponential phase S. hyicus NCTC 10350 cells (1 × 10^9 CFU/mL, 1 mL) and treated with 10 mg/kg peptides or 60 mg/kg CRO. After 2 and 24 h post-treatment, sera were collected to test the levels of cytokines using enzyme linked immunosorbent assay (ELISA) kit. To evaluate bacterial translocation, organs were harvest from mice at 24-h post-treatment for colony counting; then, organs were removed from mice at 5 d post-treatment and observed through a light microscope to assess organ injury. The uninfected mice, the treated mice with CRO or PBS were served as the blank control, positive and negative control, respectively.

S. hyicus NCTC 10350 [2] = assay: pH stability, inhibition zone assay; type: physicochemical; details: 3 h, triplicate
Procedure: (§2) The stability of NZL or NZ2114 against S. hyicus NCTC 10350 was conducted by inhibition zone assays. To evaluate the thermal stability, 64 μg/mL NZL or NZ2114 was incubated at different temperatures (20 °C, 40 °C, 60 °C, 80 °C, and 100 °C) for 1 h. Besides, aliquots of NZL or NZ2114 were dissolved in different pH buffers in a range from 2.0 to 10.0 at 37 °C for 3 h to analyze the pH stability. NZL or NZ2114 was mixed with pepsin or trypsin solutions at a ratio of 10:1 (w/w) to determine the protease stability. The untreated peptides and buffers alone were used as positive controls and negative controls, respectively. All assays were conducted in triplicate.

S. hyicus NCTC 10350 [3] = assay: Mouse peritonitis model, organ injury by light microscope; type: in vivo; details: 10 mg/kg, organs harvested at 5 d
Procedure: as §1

[4] = test system: intracellular S. hyicus NCTC 10350 in Hacat cells; type: cell-based; details: 24 h treatment, mean, n = 3
Procedure: Hacat cells (2.5 × 10^5 cells/mL) were dispensed into a 12-well plate for 24 h. Besides, the mid-log phase S. hyicus NCTC 10350 (2.5 × 10^7 CFU/mL) were coincubated with Hacat cells for 0.5 h. Then, lysostaphin was supplemented to kill extracellular bacteria. Hereafter, cells were treated with peptides or CRO for 24 h and lysed with lysis buffer. The intracellular bacteria were processed for colony counting.

S. hyicus NCTC 10350 [5] = assay: Thermal stability, inhibition zone assay; type: physicochemical; details: 1 h, 64 μg/mL, inhibition zone against S. hyicus NCTC 10350, triplicate
Procedure: as §2

Hacat cells = assay: Cytotoxicity, MTT assay; type: cell-based; details: within 256 μg/mL (1–256 μg/mL), n = 3
Procedure: The cytotoxicity of peptides toward Hacat cells was determined by the 3-(4,5-dimethylthiazol-2-yl)-2,5-diphenyltetrazolium bromide (MTT) assay according to a previous study.

S. hyicus NCTC 10350 [6] = assay: Time-killing curves; type: cell-based; details: 2× and 4× MIC; 1 × 10^5 CFU/mL in MHB; colony counting
Procedure: Time-kill curves were performed to assess the bactericidal rates of peptides against S. hyicus NCTC 10350 [25]. […] The samples were taken at regular intervals for colony counting. Cells treated with PBS and CRO were used as the negative control and positive control.

IL-1β = assay: Mouse peritonitis model, serum cytokine ELISA; type: in vivo; details: 10 mg/kg
Procedure: as §1

TNF-α = assay: Mouse peritonitis model, serum cytokine ELISA; type: in vivo; details: 10 mg/kg
Procedure: as §1

IL-6 = assay: Mouse peritonitis model, serum cytokine ELISA; type: in vivo; details: 10 mg/kg
Procedure: as §1

mouse erythrocytes = assay: Hemolysis; type: cell-based; details: at 256 μg/mL; 8% (v/v) mouse erythrocytes in 0.9% NaCl, 37 °C, 1 h, 540 nm; n = 3
Procedure: The hemolytic activity of peptides against fresh mouse erythrocytes was evaluated as described previously. In brief, 8% (v/v) erythrocyte solution in 0.9% NaCl was mixed with peptide solution (1–256 μg/mL) in an equal volume; then the mixtures were incubated at 37 °C for 1 h, centrifuged at 5000 rpm for 5 min and measured at 540 nm on a microplate reader. The absorbance of 0.9% NaCl (A0) and 0.1% Triton X-100 (A100) was used as controls. The hemolysis percentages of peptide were calculated by the following equation: Hemolysis (%) = [(A − A0)/(A100 − A0)] × 100.

S. hyicus NCTC 10350 [7] = assay: Mouse peritonitis model, survival; type: in vivo; details: ICR mice, S. hyicus NCTC 10350 10^9 CFU i.p., 7 days, 6 mice/group
Procedure: The mice (6 mice/group) were intraperitoneally infected with the exponential phase S. hyicus NCTC 10350 cells (1 × 10^9 CFU/mL, 1 mL) to establish a mouse peritonitis model. […] Survival of mice was recorded daily for 7 days.

In the case of CC[C@H](C)[C@@H]1NC(=O)[C@H](CO)NC(=O)[C@H](CCCCN)NC(=O)[C@@H]2CSSC[C@@H](C(=O)N[C@@H](Cc3ccc(O)cc3)C(=O)O)NC(=O)[C@H](CCCCN)NC(=O)[C@@H]3CSSC[C@H](NC(=O)[C@H](CCCNC(=N)N)NC(=O)[C@H](CC(C)C)NC(=O)[C@H](CC(=O)O)NC(=O)[C@H](CC(=O)O)NC(=O)[C@H](CCC(=O)O)NC(=O)[C@H](CC(N)=O)NC(=O)[C@H](Cc4c[nH]c5ccccc45)NC(=O)[C@@H]4CCCN4C(=O)CNC(=O)[C@H](CC(N)=O)NC(=O)[C@@H](NC(=O)CNC(=O)[C@H](Cc4ccccc4)NC(=O)CN)CSSC[C@H](NC(=O)[C@H](Cc4ccc(O)cc4)NC(=O)CNC(=O)CNC(=O)[C@H](CCCCN)NC(=O)[C@H](Cc4ccc(O)cc4)NC(=O)CNC(=O)[C@H](CCCCN)NC1=O)C(=O)N[C@@H](C)C(=O)N[C@@H](CCCCN)C(=O)NCC(=O)NCC(=O)N[C@@H](Cc1ccccc1)C(=O)N[C@@H](C(C)C)C(=O)N3)C(=O)N[C@@H](Cc1c[nH]cn1)C(=O)N[C@@H](CC(N)=O)C(=O)N[C@@H](Cc1c[nH]cn1)C(=O)N2 [NZ2114], the MIC (S. aureus ATCC 43300; 1 × 10^5 CFU/mL, peptides 1–256 μg/mL) is reported as 4 µg/mL, the MIC (S. aureus ATCC 43300) is reported as 0.91 µM and the “Bacterial counts in blood” value (S. hyicus NCTC 10350 [1]) is reported as 0.12 Log10 CFU/0.1 g. For the same molecule, the “Bacterial counts in kidneys” value (S. hyicus NCTC 10350 [1]) was 3.39 Log10 CFU/0.1 g, the “Bacterial counts in livers” value (S. hyicus NCTC 10350 [1]) was 1.90 Log10 CFU/0.1 g and the “Bacterial counts in lungs” value (S. hyicus NCTC 10350 [1]) was 2.87 Log10 CFU/0.1 g. The “Bacterial counts in spleens” value (S. hyicus NCTC 10350 [1]) was 4.41 Log10 CFU/0.1 g, the pH stability (S. hyicus NCTC 10350 [2]; pH 2 to 10, 37 °C, inhibition zone against S. hyicus NCTC 10350) was “retained strong stable activity” and the “Activity in the acidic environment” value (S. hyicus NCTC 10350 [2]; pH 4, 37 °C, inhibition zone against S. hyicus NCTC 10350, relative to untreated peptide) was 86%. For the same molecule, the “Organ injury (livers, spleens, lungs, kidneys)” value (S. hyicus NCTC 10350 [3]) was “apparently less damaged”, the “Decrease of intracellular S. hyicus” value ([4]; 10× MIC) was 88.53% and the “Killing rate of intracellular S. hyicus” value ([4]; 1000× MIC) was 99.85%. The Thermal stability (S. hyicus NCTC 10350 [5]; 20 to 80 °C) was “good thermal stability”, the Activity after heating (S. hyicus NCTC 10350 [5]; 100 °C) was “no activity” and the Minimum cell viability (Hacat cells) was 58.21%. The “Time within which S. hyicus NCTC 10350 cells were killed completely” value (S. hyicus NCTC 10350 [6]) was no more than 8 h, the “Serum level of IL-1β” value (IL-1β; 2 h after treatment) was 78.24 pg/mL and the “Serum level of IL-1β” value (IL-1β; 24 h after treatment) was 14.47 pg/mL. For the same molecule, the “Serum level of TNF-α” value (TNF-α; 2 h after treatment) was 177.47 pg/mL, the “Serum level of TNF-α” value (TNF-α; 24 h after treatment) was 4.01 pg/mL and the “Serum level of IL-6” value (IL-6; 2 h after treatment) was 958.45 pg/mL. The “Serum level of IL-6” value (IL-6; 24 h after treatment) was 78.28 pg/mL, the Maximum hemolysis (mouse erythrocytes) was 1.35% and the Survival rate (S. hyicus NCTC 10350 [7]; 5 mg/kg i.p. at 2 h and 8 h post-infection) was 33.3%. The Survival rate (S. hyicus NCTC 10350 [7]; 10 mg/kg i.p. at 2 h and 8 h post-infection) was 83.3%.
